Experimental data from publication PMC8171091, “Tanshinone I, a new EZH2 inhibitor restricts normal and malignant hematopoiesis through upregulation of MMP9 and ABCG2” (Theranostics, 2021).

Target: T1, EZH2 (zEZH2) (Danio rerio, UniProt Q08BS4)
T1 sequence (Q08BS4 1-760): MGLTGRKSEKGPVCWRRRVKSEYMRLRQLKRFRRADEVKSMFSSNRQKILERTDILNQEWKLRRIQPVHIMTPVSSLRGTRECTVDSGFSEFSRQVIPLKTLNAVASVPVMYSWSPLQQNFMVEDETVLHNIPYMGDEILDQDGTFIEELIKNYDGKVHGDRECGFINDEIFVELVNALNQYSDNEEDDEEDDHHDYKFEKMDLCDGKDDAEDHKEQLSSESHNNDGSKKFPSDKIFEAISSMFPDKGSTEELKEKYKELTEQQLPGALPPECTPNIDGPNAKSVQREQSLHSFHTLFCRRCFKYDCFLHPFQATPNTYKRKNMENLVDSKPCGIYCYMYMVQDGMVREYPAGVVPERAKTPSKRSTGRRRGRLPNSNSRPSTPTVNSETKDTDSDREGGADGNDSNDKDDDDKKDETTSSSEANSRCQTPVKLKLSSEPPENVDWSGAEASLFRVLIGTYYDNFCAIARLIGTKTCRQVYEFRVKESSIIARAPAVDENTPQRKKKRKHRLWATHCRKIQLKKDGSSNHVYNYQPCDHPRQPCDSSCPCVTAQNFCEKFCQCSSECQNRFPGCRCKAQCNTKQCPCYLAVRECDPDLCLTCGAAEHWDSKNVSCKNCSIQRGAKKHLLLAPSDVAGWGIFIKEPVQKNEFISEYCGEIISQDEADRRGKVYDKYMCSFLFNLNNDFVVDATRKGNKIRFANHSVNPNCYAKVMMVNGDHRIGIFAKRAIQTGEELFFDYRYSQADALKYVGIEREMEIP

CCN(c1cc(-c2ccc(CN3CCOCC3)cc2)cc(C(=O)NCc2c(C)cc(C)[nH]c2=O)c1C)C1CCOCC1 [EPZ6438]
SPR (Biacore T200), positive control: Compared to EPZ6438 (a reported EZH2 inhibitor), Tan I showed more strongly binding to EZH2
